For four compounds, EC50 results are on record in patent US9150568B2, “Compositions and methods for modulating FXR” (NOVARTIS AG, priority 2010, dated 2015).

By UniProt entry, the sequences of proteins in these tests, tags left out. Residues count along the entry.
UniProt Q96RI1, 193-472 isoform 2 limits assumed: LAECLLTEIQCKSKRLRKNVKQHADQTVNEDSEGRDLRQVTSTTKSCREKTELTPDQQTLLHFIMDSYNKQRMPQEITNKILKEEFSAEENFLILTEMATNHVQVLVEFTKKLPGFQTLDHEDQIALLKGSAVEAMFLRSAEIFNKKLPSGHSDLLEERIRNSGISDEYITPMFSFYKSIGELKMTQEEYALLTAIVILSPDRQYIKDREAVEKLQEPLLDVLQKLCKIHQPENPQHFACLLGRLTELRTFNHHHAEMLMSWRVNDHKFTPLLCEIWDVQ

pEC50: −log10 of the molar value.

In the experiment the target is human Farnesoid X Receptor (FXR) ligand binding domain (GST-FXR LBD) (Homo sapiens, UniProt Q96RI1). Put plainly: Human GST-FXR LBD co-activator interaction assay (HTRF). The format is biochemical. The conditions noted are these: read-out: FXR Co-activator interaction assay (EC50); GST-FXR LBD / biotin-SRC-1 peptide FRET; response relative to GW4064.

For `Cc1cc(C(=O)O)nc(N2C3CCC2CC(OCc2c(-c4ccccc4C(F)(F)F)noc2C2CC2)C3)c1` (stereo not shown), the pEC50 (in general, the negative decadic logarithm of the EC50, by convention in mol/L) is 7.49.

`O=C(O)c1ccc(N2C3CCC2CC(OCc2c(-c4ccccc4OC(F)F)noc2C2CC2)C3)nc1` (stereo not shown): the pEC50 is 8.40.

`O=C(O)c1cnc(N2C3CCC2CC(OCc2c(-c4ccccc4OC(F)F)noc2C2CC2)C3)cc1Cl` (stereo not shown): the pEC50 was 6.80.

Regarding `Cc1cc(C(=O)O)nc(N2C3CCC2CC(OCc2c(-c4ccccc4C(F)(F)F)noc2C2CC2)C3)n1` (stereo not shown), the pEC50 is 8.05.
